Measured values as given in US20210181183A1, “METHODS FOR DETERMINING SELECTIVITY OF TEST COMPOUNDS” (CEMM - FORSCHUNGSZENTRUM FÜR MOLEKULARE MEDIZIN GmBH, priority 2017, published 2021).

Tested on: CD79a+ cells over CD79a- cells of a diffuse large B-cell lymphoma patient
Assay: ex vivo selectivity of compounds to kill cancerous versus non-cancerous cells, excised lymph node of DLBCL patient (Example 8)
Format: cell-based, human
Conditions: fraction of live cancerous cells of live total cells relative to DMSO control; dissociated lymph node cells; <1 = selectively kills cancerous cells

C[C@@H]1C[C@H]2[C@@H]3CCC4=CC(=O)C=C[C@]4(C)[C@@]3(F)[C@@H](O)C[C@]2(C)[C@@]1(O)C(=O)CO [dexamethasone]
value/selectivity: 0.87
